Experimental findings from PubChem BioAssay AID1346378 (National Center for Advancing Translational Sciences (NCATS), 2018) are described below.

Chains of the proteins cited; added tags and fusions are not shown.
UniProt Q9BTU6, whole entry: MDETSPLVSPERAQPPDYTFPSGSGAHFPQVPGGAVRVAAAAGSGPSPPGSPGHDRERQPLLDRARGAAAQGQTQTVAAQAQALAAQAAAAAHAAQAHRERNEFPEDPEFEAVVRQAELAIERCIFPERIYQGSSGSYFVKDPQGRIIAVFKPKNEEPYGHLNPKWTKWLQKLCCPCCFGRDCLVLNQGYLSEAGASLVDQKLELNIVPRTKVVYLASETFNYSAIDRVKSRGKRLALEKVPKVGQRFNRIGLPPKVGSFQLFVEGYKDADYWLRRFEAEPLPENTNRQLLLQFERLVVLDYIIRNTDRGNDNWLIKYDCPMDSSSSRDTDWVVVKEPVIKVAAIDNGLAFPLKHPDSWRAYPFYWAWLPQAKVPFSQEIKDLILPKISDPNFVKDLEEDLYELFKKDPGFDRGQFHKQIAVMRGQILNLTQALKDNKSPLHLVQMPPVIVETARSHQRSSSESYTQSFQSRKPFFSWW

Molecules are shown by their SMILES. The list shows a part of the results, in another mix than the full data. Some salts and complexes are drawn in separate pieces, as the source files them; their charges need not balance. Calls of active or inactive are those of the source. Cut-off read from the data, not from the text of the source: active = activity change below about -50%; inconclusive = mostly about -30% to -49%; inactive = weaker than that.

The target of this test is Phosphatidylinositol 4-kinase type 2-alpha (Homo sapiens) (UniProt Q9BTU6). In words: qHTS for small molecular inhibitors of PI4K2A.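 Note: -100% = wells without enzyme as full effect.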 As to conditions: purified PI4K2A, ADP-Glo luminescence, 1 h; at 76.9 µM; hits give low values. An excerpt: The phosphatidylinositol 4-phosphate (PI4P) is emerging as a key regulator of lipid transfer in ER-membrane contact sites. The four different phosphatidylinositol 4-kinase (PI4K) enzymes generate PI4P in different membrane compartments supporting distinct cellular processes many of which are crucial for the maintenance of cellular integrity but also hijacked by intracellular pathogens. The goal of this screening project is to search for small molecular inhibitors of PI4K2A based on a high throughput screening strategy.The ADP-Glo assay was used as a starting point to develop a miniaturized version for HTS applications. To implement the HTS screen, the PI4K ADP-Glotrade mark Kinase assay (Promega, V9102) was miniaturized for the 1536-well format used at NCGC.
For the robotic screening, the ADP-Glo assay using the ADP-Glotrade mark Kinase Assay kit from Promega was miniaturized and optimized on 1536-well white solid bottom plates (Greiner Bio-one). The substrate, 1.2 mM PI, prepared in the assay buffer (40mM Tris pH7.5, 20mM MgCl2, 1mM EGTA, 0.4% Triton X-100, 0.5mM DTT, 0.5mg/ml BSA) and PI4K2A enzyme, diluted also in the assay buffer to 4ug/mL, were dispensed onto the plates in equal volumes (1microl/well), pinned with 23 nL/well tested compounds or control followed by dispensation of 1microl/well 300microM ATP. The plates were incubated for one hour. Then, 2 µL/well of ADP-Glo reagent was added and incubated for 40 minutes. Next, 4microL/well of Kinase Detection Buffer was added to the plates and incubated for additional 40 minutes. All incubation steps were performed at ambient temperature. The resulting luminescence signal was measured on Viewlux plate reader (PerkinElmer). Adenosine, a partial non-specific inhibitor, was used as a positive control at 100microM final concentration to assess the assay's quality and plate-to-plate reproducibility. We also used "no enzyme" control to gauge the assay's maximal potential inhibition (IC100).
On the technique in general: In qHTS, concentration-response curves come from the screen itself.
`CCOc1ncccc1C(=O)NCC1(N2CCOCC2)CCCCC1`: the activity change, negative = inhibition is inactive: 7.03%. As for `COc1ccc(Cl)cc1C(=O)NCC1(N2CCOCC2)CCCCC1`, the activity change, negative = inhibition was inactive: -2.51%. For `O=C1C(O)=C([N+](=O)[O-])C(=O)C(O)=C1[N+](=O)[O-]` the value was inactive: -17%.

For `O=C(NCC1(N2CCCCC2)CCCCC1)c1ccc(Cl)s1`, the activity change, negative = inhibition was inactive: 2.69%. With `N#CC1(Nc2ccccc2)CCN(Cc2ccccc2)CC1`, the activity change, negative = inhibition was inactive: -0.941%. `O=c1[nH]c2ccccc2n1C1CCN(C(c2cc3ccccc3o2)c2nnnn2C2CCCCC2)CC1` (stereo unspecified): the activity change, negative = inhibition is inactive: 5.37%. For `O=C(OC1CN2CCC1CC2)C1c2ccccc2Oc2ccccc21` (stereo unspecified) the value was inactive: 2.67%. The value for `CCCCn1nnnc1C(c1ccc(OC)cc1)N1CCC(n2c(=O)[nH]c3ccccc32)CC1` (stereo unspecified) was inactive: -3.28%; that for `CCOC(=O)N1CCC(Nc2ccc(OC)cc2)CC1` was inactive: 1.81%; that for `Cc1cc(C)cc(N(C(=O)c2ccccc2)C2CCN(C(=O)OC(C)(C)C)CC2)c1` was inactive: 5.32%. The value for `O=C(NCC1(N2CCCCC2)CCCCC1)c1ccc(Cl)nc1` was inactive: -11.1%; that for `O=c1[nH]c2ccccc2n1C1CCN(C(c2ccccc2OC(F)(F)F)c2nnnn2C2CCCCC2)CC1` (stereo unspecified) was inactive: 3.25%; that for `O=C(NCC1(N2CCOCC2)CCCCC1)c1cc2ccccc2o1` was inactive: -4.89%.

As to `Cc1cccc(NC2(C#N)CCN(Cc3ccccc3)CC2)c1`, the activity change, negative = inhibition was inactive: -2.58%. In the case of `CCOC(=O)N1CCC(=O)CC1`, the activity change, negative = inhibition was inactive: -2.01%. For `CSc1ccccc1C(=O)NCC1(N2CCCCC2)CCCCC1` the value was inactive: 1.72%; for `COc1ccc(C(=O)NCC2(N3CCCCC3)CCCCC2)c(OC)c1OC`, inactive: -6.45%; for `CC(C)(C)OC(=O)N1CCC(N(C(=O)c2ccccc2)c2ccc(F)cc2)CC1`, inactive: 1.67%. Regarding `CCC(c1nnnn1C1CCCC1)N1CCC(n2c(=O)[nH]c3ccccc32)CC1` (stereo unspecified), the activity change, negative = inhibition is inactive: 1.01%. For `COc1ccc(C(=O)NCC2(N3CCCCC3)CCCCC2)cc1` the value was inactive: -6.03%. Regarding `CCCCn1nnnc1C(CC)N1CCC(n2c(=O)[nH]c3ccccc32)CC1` (stereo unspecified), the activity change, negative = inhibition is inactive: 7.13%. As to `O=C(NCC1(N2CCCCC2)CCCCC1)c1cccs1`, the activity change, negative = inhibition is inactive: -0.652%. With `CCCCn1nnnc1C(c1cccs1)N1CCC(n2c(=O)[nH]c3ccccc32)CC1` (stereo unspecified), the activity change, negative = inhibition is inactive: 1.59%. For `O=C(NCC1(N2CCCCC2)CCCCC1)c1ccc(=O)[nH]c1` the value was inactive: -3.22%; for `CCOC(=O)N1CCC(Nc2cccc(C)c2)CC1`, inactive: -1.34%; for `COc1cc(C(=O)NCC2(N(C)C)CCCCC2)ccc1OC(F)F`, inactive: -3.23%.

In the case of `O=c1[nH]c2ccccc2n1C1CCN(C(c2cccc3ccccc23)c2nnnn2C2CCCC2)CC1` (stereo unspecified), the activity change, negative = inhibition was inactive: -1.37%.

As to `O=c1[nH]c2ccccc2n1C1CCN(C(c2ccccc2)c2nnnn2C2CCCCC2)CC1` (stereo unspecified), the activity change, negative = inhibition was inactive: 2.39%. Regarding `COc1ccccc1C(=O)NCC1(N2CCOCC2)CCCCC1`, the activity change, negative = inhibition was inactive: 0.157%. Regarding `CCOC(=O)N1CCC(Nc2ccc(F)cc2)CC1`, the activity change, negative = inhibition was inactive: 2.38%. For `COc1ccc(NC2CCN(CCc3ccccc3)CC2)c(OC)c1`, the activity change, negative = inhibition was inactive: -2.23%.

As for `CCCCOc1ccc(C(=O)NCC2(N3CCOCC3)CCCCC2)cc1`, the activity change, negative = inhibition was inactive: -0.726%.

`CCCCn1nnnc1C(c1cc2ccccc2o1)N1CCC(n2c(=O)[nH]c3ccccc32)CC1` (stereo unspecified): the activity change, negative = inhibition was inactive: -2.3%. On to `O=P1(N(CCCl)CCCl)SCCCS1`, for which the activity change, negative = inhibition was inactive: 1.2%. As to `O=C(NCC1(N2CCCCC2)CCCCC1)c1ccc(F)cc1`, the activity change, negative = inhibition was inactive: 0.831%. Consider `O=C1CCN(Cc2ccccc2)CC1`, for which the activity change, negative = inhibition was inactive: 0.373%. For `O=C(NCC1(N2CCOCC2)CCCCC1)c1ccc(Cl)cc1`, the activity change, negative = inhibition is inactive: -1.66%. Regarding `CC(C)(C)n1nnnc1C(c1ccccc1)N1CCC(n2c(=O)[nH]c3ccccc32)CC1` (stereo unspecified), the activity change, negative = inhibition is inactive: 1.78%. The value for `CCOc1ccc(C)cc1CN(CCCl)CCCl` was inactive: 3.13%. `O=C(NCC1(N2CCOCC2)CCCCC1)c1cc(=O)[nH]c2ccccc12`: the activity change, negative = inhibition was inactive: 2.92%. As for `COc1cc(C(=O)NCC2(N3CCCCC3)CCCCC2)ccc1OC(F)F`, the activity change, negative = inhibition is inactive: 1.1%. Take `COc1ccc(NC2CCN(C(=O)OC(C)(C)C)CC2)cc1`: the activity change, negative = inhibition is inactive: -0.31%. On to `CC(C)c1ccc(C(=O)NCC2(N3CCOCC3)CCCCC2)cc1`, for which the activity change, negative = inhibition is inactive: 1.74%.

In the case of `CN1CCN(CCOC(=O)C(O)(c2ccccc2)c2ccccc2)CC1`, the activity change, negative = inhibition was inactive: 2.23%.

Take `CCCCn1nnnc1C(c1cccc2ccccc12)N1CCC(n2c(=O)[nH]c3ccccc32)CC1` (stereo unspecified): the activity change, negative = inhibition was inactive: -1.26%. For `O=[N+]([O-])c1cc([N+](=O)[O-])c(NCC2CCS(=O)(=O)C2)c([N+](=O)[O-])c1` (stereo unspecified), the activity change, negative = inhibition was inactive: -2.03%. On to `O=C(NCC1(N2CCCCC2)CCCCC1)c1cccc(C(F)(F)F)c1`, for which the activity change, negative = inhibition was inactive: -4.86%. The value for `CCCOc1cccc(C(=O)NCC2(N3CCOCC3)CCCCC2)c1` was inactive: 1.72%; that for `O=c1[nH]c2ccccc2n1C1CCN(C(c2ccccc2OC(F)(F)F)c2nnnn2C2CCCC2)CC1` (stereo unspecified) was inactive: 2.97%; that for `N#CC1(Nc2ccccc2)CCN(CCc2ccccc2)CC1` was inactive: 8.75%. On to `CCN1CCC(Nc2ccc(Cl)cc2)CC1`, for which the activity change, negative = inhibition was inactive: -2.37%. Consider `O=C(NCC1(N2CCCCC2)CCCCC1)c1cccc([N+](=O)[O-])c1`, for which the activity change, negative = inhibition is inactive: 5.74%.

On to `CCOc1ccc(C(=O)NCC2(N3CCOCC3)CCCCC2)cc1`, for which the activity change, negative = inhibition was inactive: -3.93%.

Consider `CSc1ccc(C(=O)NCC2(N3CCOCC3)CCCCC2)cc1`, for which the activity change, negative = inhibition is inactive: 6.82%. For `O=C(NCC1(N2CCCCC2)CCCCC1)c1ccc(OC(F)F)cc1` the value was inactive: 7.81%; for `CC(C)(C)n1nnnc1C(c1ccccc1OC(F)(F)F)N1CCC(n2c(=O)[nH]c3ccccc32)CC1` (stereo unspecified), inactive: -4.55%.

On to `COc1ccc(C(c2nnnn2C2CCCC2)N2CCC(n3c(=O)[nH]c4ccccc43)CC2)cc1` (stereo unspecified), for which the activity change, negative = inhibition is inactive: -1.43%. Consider `O=[N+]([O-])c1cc([N+](=O)[O-])c(Nc2ccc(Cl)cc2)c([N+](=O)[O-])c1`, for which the activity change, negative = inhibition is inactive: -4.83%. The value for `O=C(NCC1(N2CCOCC2)CCCCC1)c1ccccc1Br` was inactive: -1.24%; that for `CCCOc1ccc(C(=O)NCC2(N(C)C)CCCCC2)cc1OC` was inactive: -1.3%. `CCCCOc1ccccc1C(=O)NCC1(N2CCOCC2)CCCCC1`: the activity change, negative = inhibition was inactive: -2.74%.

`Cc1ccc(C(=O)NCC2(N(C)C)CCCCC2)o1`: the activity change, negative = inhibition is inactive: -0.253%. For `O=C(OC1CN2CCC1CC2)c1ccc([N+](=O)[O-])cc1` (stereo unspecified) the value was inactive: 9.55%; for `CN1CCC(Nc2cccc(F)c2)CC1`, inactive: 0.538%; for `O=C(NCC1(N2CCCCC2)CCCCC1)c1cncc(Br)c1`, inactive: -1.65%. With `COc1ccc2c(c1O)-c1c(O)c(OC)cc3c1[C@H](C2)[N+](C)(C)CC3.O=[N+]([O-])c1cc([N+](=O)[O-])c([O-])c([N+](=O)[O-])c1[O-]`, the activity change, negative = inhibition was inactive: -4.49%.

With `O=C(NCC1(N2CCOCC2)CCCCC1)c1cc(F)c(F)cc1Cl`, the activity change, negative = inhibition is inactive: -2.32%.

`CCC(c1nnnn1C(C)(C)C)N1CCC(n2c(=O)[nH]c3ccccc32)CC1` (stereo unspecified): the activity change, negative = inhibition was inactive: -0.446%. Turning to `COc1cc(OC)c(C(=O)NCC2(N(C)C)CCCCC2)cc1OC`, the activity change, negative = inhibition was inactive: -9.75%. For the molecule `CCCCn1nnnc1C(c1ccnc2ccccc12)N1CCC(n2c(=O)[nH]c3ccccc32)CC1` (stereo unspecified), the activity change, negative = inhibition was inactive: -5.73%. Take `CCCCn1nnnc1C(c1ccccc1OC(F)(F)F)N1CCC(n2c(=O)[nH]c3ccccc32)CC1` (stereo unspecified): the activity change, negative = inhibition was inactive: -2.72%. With `CC(C)c1ccc(NC2CCN(C(=O)OC(C)(C)C)CC2)cc1`, the activity change, negative = inhibition was inactive: -12.9%. For `CN(C)c1cccc(C(=O)NCC2(N3CCCCC3)CCCCC2)c1`, the activity change, negative = inhibition is inactive: -3.03%. On to `O=[N+]([O-])c1cc([N+](=O)[O-])c(OC2CCCCC2O)c([N+](=O)[O-])c1` (stereo unspecified), for which the activity change, negative = inhibition was inactive: 2.55%.

Consider `COc1ccc(CN(CCCl)CCCl)cc1Cl`, for which the activity change, negative = inhibition is inactive: -4.55%. With `COC(=O)C1(Nc2ccccc2)CCN(Cc2ccccc2)CC1`, the activity change, negative = inhibition is inactive: 0.494%.
